## Apparent affinities of Ab-14 variants for a coronavirus HR2 peptide

Target: peptide PDVDLGDISGINAS, taken from heptad repeat 2 (HR2) of SARS-CoV-2 spike.

Each scFv is VH, a (GGGGS)3 linker, VL, as in the parent Ab-14, and differs from it in the CDRs of the heavy chain only.
VH: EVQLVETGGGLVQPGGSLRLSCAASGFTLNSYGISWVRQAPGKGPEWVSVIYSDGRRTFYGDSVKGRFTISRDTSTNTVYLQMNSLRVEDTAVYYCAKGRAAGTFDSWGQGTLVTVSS
VL: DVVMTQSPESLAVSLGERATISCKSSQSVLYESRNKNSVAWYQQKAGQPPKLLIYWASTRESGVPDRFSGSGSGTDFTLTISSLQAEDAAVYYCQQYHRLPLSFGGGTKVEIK

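Variants in AAYL49 differ from the parent at up to three CDR positions; double and triple changes were sampled at random. Affinity was read by AlphaSeq, a pooled yeast mating assay with surface-displayed partners. Mating (16 h, 30 °C) was followed by selection of diploids and sequencing of their barcodes. The ratio of observed to expected reads was calibrated, replicate by replicate, on BCL2-family standards whose Kd was known from biolayer interferometry. Mating was done three times.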

Each variant is given by its three heavy chain CDRs, as the data file delimits them; those of the parent are GFTLNSYGIS, VIYSDGRRTFYGDSVK, GRAAGTFDS. These are single substitutions, in order of position. The read-out is the apparent dissociation constant on a log10 scale (nM): the lower, the stronger. "nd" means that the variant was in the library but no mating with the target was seen in that replicate; the authors take this as a sign of poor binding, and no number exists. Empty control strains, which show no peptide, gave a signal in 15% of pairings with library AAYL49; the median was 4.06 and 95% of these signals were weaker than 2.83. No background was subtracted.

CDR-H1	CDR-H2	CDR-H3	log10 Kd, replicates
GFTLNSYGIS	VIYSDGRRTFYTDSVK	GRAAGTFDS	0.58 0.75 0.76
GFTLNSYGIS	VIYSDGRRTFYHDSVK	GRAAGTFDS	0.06 0.39 0.24
GFTLNSYGIS	VIYSDGRRTFYCDSVK	GRAAGTFDS	0.67 0.83 0.71
GFTLNSYGIS	VIYSDGRRTFYDDSVK	GRAAGTFDS	0.69 0.67 0.59
GFTLNSYGIS	VIYSDGRRTFYGKSVK	GRAAGTFDS	2.38 2.85 1.96
GFTLNSYGIS	VIYSDGRRTFYGISVK	GRAAGTFDS	nd nd nd
GFTLNSYGIS	VIYSDGRRTFYGESVK	GRAAGTFDS	0.83 0.68 0.77
GFTLNSYGIS	VIYSDGRRTFYGRSVK	GRAAGTFDS	nd 1.85 2.20
GFTLNSYGIS	VIYSDGRRTFYGMSVK	GRAAGTFDS	2.67 1.96 3.71
GFTLNSYGIS	VIYSDGRRTFYGNSVK	GRAAGTFDS	0.80 1.14 1.23
GFTLNSYGIS	VIYSDGRRTFYGGSVK	GRAAGTFDS	3.88 3.47 3.25
GFTLNSYGIS	VIYSDGRRTFYGLSVK	GRAAGTFDS	3.00 nd 2.29
GFTLNSYGIS	VIYSDGRRTFYGYSVK	GRAAGTFDS	2.67 3.55 nd
GFTLNSYGIS	VIYSDGRRTFYGVSVK	GRAAGTFDS	nd nd nd
GFTLNSYGIS	VIYSDGRRTFYGTSVK	GRAAGTFDS	1.67 2.61 1.11
GFTLNSYGIS	VIYSDGRRTFYGWSVK	GRAAGTFDS	4.36 2.15 3.20
GFTLNSYGIS	VIYSDGRRTFYGSSVK	GRAAGTFDS	nd nd nd
GFTLNSYGIS	VIYSDGRRTFYGQSVK	GRAAGTFDS	2.37 2.36 2.94
GFTLNSYGIS	VIYSDGRRTFYGFSVK	GRAAGTFDS	2.93 2.75 3.21
GFTLNSYGIS	VIYSDGRRTFYGCSVK	GRAAGTFDS	3.51 2.54 nd
GFTLNSYGIS	VIYSDGRRTFYGHSVK	GRAAGTFDS	2.13 1.86 1.74
GFTLNSYGIS	VIYSDGRRTFYGASVK	GRAAGTFDS	1.27 1.32 1.71
GFTLNSYGIS	VIYSDGRRTFYGDEVK	GRAAGTFDS	1.44 1.27 1.76
GFTLNSYGIS	VIYSDGRRTFYGDDVK	GRAAGTFDS	0.46 0.65 0.56
GFTLNSYGIS	VIYSDGRRTFYGDKVK	GRAAGTFDS	1.76 1.66 2.06
GFTLNSYGIS	VIYSDGRRTFYGDQVK	GRAAGTFDS	0.63 1.04 1.05
GFTLNSYGIS	VIYSDGRRTFYGDPVK	GRAAGTFDS	1.65 1.57 1.57
GFTLNSYGIS	VIYSDGRRTFYGDHVK	GRAAGTFDS	3.29 1.53 2.41
GFTLNSYGIS	VIYSDGRRTFYGDLVK	GRAAGTFDS	nd nd 3.63
GFTLNSYGIS	VIYSDGRRTFYGDTVK	GRAAGTFDS	1.46 1.48 1.33
GFTLNSYGIS	VIYSDGRRTFYGDAVK	GRAAGTFDS	0.97 1.03 1.15
GFTLNSYGIS	VIYSDGRRTFYGDCVK	GRAAGTFDS	3.04 2.40 3.51
GFTLNSYGIS	VIYSDGRRTFYGDGVK	GRAAGTFDS	1.10 1.17 1.09
GFTLNSYGIS	VIYSDGRRTFYGDNVK	GRAAGTFDS	1.12 1.12 1.34

Repeated from above, the 5 best binders with a signal in all replicates:

| CDR-H1 | CDR-H2 | CDR-H3 | log10 Kd, replicates |
|---|---|---|---|
| GFTLNSYGIS | VIYSDGRRTFYHDSVK | GRAAGTFDS | 0.06 0.39 0.24 |
| GFTLNSYGIS | VIYSDGRRTFYGDDVK | GRAAGTFDS | 0.46 0.65 0.56 |
| GFTLNSYGIS | VIYSDGRRTFYDDSVK | GRAAGTFDS | 0.69 0.67 0.59 |
| GFTLNSYGIS | VIYSDGRRTFYTDSVK | GRAAGTFDS | 0.58 0.75 0.76 |
| GFTLNSYGIS | VIYSDGRRTFYCDSVK | GRAAGTFDS | 0.67 0.83 0.71 |

For reference, the parent read 0.65 as the reference entry and 4.11 (one replicate of three) as a member of this library.

Values reported by Engelhart et al. 2022, doi:10.1038/s41597-022-01779-4 (FLAb copy).